Patent publication US8748608B2, “4-phenylpiperazine derivatives with functionalized linkers as dopamine D3 receptor selective ligands and methods of use” (The United States of America as Represented by the …, priority 2007, dated 2014)

Amino acid sequences for entries named in this document (tags omitted).
UniProt P14416, whole entry: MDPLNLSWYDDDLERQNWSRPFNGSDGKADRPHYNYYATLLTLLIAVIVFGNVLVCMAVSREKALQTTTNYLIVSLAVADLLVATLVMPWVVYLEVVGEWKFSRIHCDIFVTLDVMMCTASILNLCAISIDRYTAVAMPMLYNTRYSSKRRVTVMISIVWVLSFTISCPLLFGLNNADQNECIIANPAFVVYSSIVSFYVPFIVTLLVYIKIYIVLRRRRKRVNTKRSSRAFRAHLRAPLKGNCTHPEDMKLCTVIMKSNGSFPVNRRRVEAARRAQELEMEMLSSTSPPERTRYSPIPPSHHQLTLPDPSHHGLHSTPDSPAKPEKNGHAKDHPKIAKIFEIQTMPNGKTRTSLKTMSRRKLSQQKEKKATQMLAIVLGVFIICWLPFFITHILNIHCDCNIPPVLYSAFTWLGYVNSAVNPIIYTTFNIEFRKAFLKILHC
UniProt P35462, whole entry: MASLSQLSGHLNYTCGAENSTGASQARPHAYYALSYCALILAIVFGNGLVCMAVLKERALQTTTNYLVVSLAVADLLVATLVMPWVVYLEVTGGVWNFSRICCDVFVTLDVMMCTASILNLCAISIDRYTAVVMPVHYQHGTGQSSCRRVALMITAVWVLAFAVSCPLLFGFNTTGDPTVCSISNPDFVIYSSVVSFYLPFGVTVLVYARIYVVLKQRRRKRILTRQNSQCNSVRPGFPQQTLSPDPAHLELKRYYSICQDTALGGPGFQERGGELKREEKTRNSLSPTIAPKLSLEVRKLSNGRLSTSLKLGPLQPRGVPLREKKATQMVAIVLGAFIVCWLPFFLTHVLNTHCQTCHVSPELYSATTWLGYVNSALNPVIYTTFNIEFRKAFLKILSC

How the values were obtained:
[1] = biological target: human dopamine D2-long (D2) receptor (Homo sapiens (Human), UniProt P14416); assay: Human D2-like receptor competition binding in HEK cells, D2; conditions: hD2L
[2] = biological target: D2 receptor (human) in CHOp-cells (Homo sapiens (Human), UniProt P14416); assay: D2 inhibition of quinpirole stimulation of mitogenesis (antagonist assay); assay type: cell-based; conditions: inhibition of 30 nM quinpirole stimulated mitogenesis, read-out: IC50 ± S.E.M., D2
[3] = biological target: human dopamine D3 receptors in CHO cells (Homo sapiens (Human), UniProt P35462); assay: D3 inhibition of quinpirole stimulation of mitogenesis (antagonist assay); assay type: cell-based; conditions: inhibition of 30 nM quinpirole stimulated mitogenesis, CHOp cells; read-out: IC50 ± S.E.M., D3

Row | SMILES | Ki [1] | IC50 [2] | IC50 [3]
1 | COc1ccccc1N1CCN(C/C=C/CNC(=O)c2ccc(-c3ccccn3)cc2)CC1 [Compound 14, N-(4-(4-(2-Methoxy-phenyl)-piperazin-1-yl)-trans-but-2-enyl)-4-pyridin-2-yl-benzamide] | 69 nM | 175 ± 17 nM | 
2 | COc1ccccc1N1CCN(C/C=C/CNC(=O)c2ccc3c(c2)Cc2ccccc2-3)CC1 [Compound 15, N-(4-(4-(2-methoxyphenyl)piperazin-1-yl)-trans-but-2-enyl)-9H-fluorene-2-carboxamide] |  |  | 18.9 ± 4.2 nM
